Data reported in ChEMBL document CHEMBL3880438, “Identification of modulators of GPR41 or GPR42 activity” (2001).
Activity calls are given as the source filed them. No cut-off for these calls is given here.

Target: T1, Free fatty acid receptor 3 (Rattus norvegicus) (UniProt B2GV46)
T1 sequence (whole entry): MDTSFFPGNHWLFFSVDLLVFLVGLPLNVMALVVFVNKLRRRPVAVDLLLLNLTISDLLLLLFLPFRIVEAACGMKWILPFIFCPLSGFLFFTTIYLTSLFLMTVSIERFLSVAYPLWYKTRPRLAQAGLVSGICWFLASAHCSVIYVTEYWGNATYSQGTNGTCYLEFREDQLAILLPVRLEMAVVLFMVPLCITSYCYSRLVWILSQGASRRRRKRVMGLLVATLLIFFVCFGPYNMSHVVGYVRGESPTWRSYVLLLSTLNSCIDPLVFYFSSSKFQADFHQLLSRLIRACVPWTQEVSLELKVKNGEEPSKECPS
Assay: Agonist activity at rat GPR41 expressed in HEK293T cell membranes co-expressing Go1alpha protein assessed as stimulation of [35S]GTPgammaS binding at 0.1 microM to 0.1 M incubated for 30 mins by scintillation counting method
Format: functional
Settings: HEK-293T

**Q.** `CCCC(=O)[O-].CCCCC(=O)[O-].[K+].[Na+]` was tested. Which Activity did it give?
**A.** Active
